# Test results reported in patent publication US10499648B2, “Sterilization method, formulation for sterilization use, and device for producing sterilizing liquid” (priority 2014, dated 2019).
# Experiments:
# [1] = Lifetime / decomposition of synthesized peroxynitric acid depending on temperature; type: physicochemical; details: rate doubles per 5 degrees rise
# Source text: The synthesis reaction of peroxynitric acid progresses also at a room temperature. To be specific, peroxynitric acid is synthesized at a room temperature; however, the lifetime of the synthesized peroxynitric acid depends on temperature. Where being saved at a room temperature, the synthesized peroxynitric acid is quickly decomposed to turn into nitric acid in a short time. When the temperature rises by 5 degrees, the rate of decomposition doubles. For example, the rate of decomposition at a temperature of 20° C. is 16 times as fast as that at a temperature of 0° C. (zero). Thus, the synthesized peroxynitric acid turns into nitric acid solution very quickly at a temperature of 50° C. The half-life of the peroxynitric acid is 10 minutes or so at a room temperature. The half-life of the peroxynitric acid is a few hours (2 to 3 hours or so) at a temperature of 0 (zero) degrees.
# In order to preserve the solution with the biocidal activity maintained, it is preferable to set the temperature of the solution as low as possible. For example, the solution is adjusted to have a temperature of 0° C., which enables the solution to be stored/preserved for a couple of hours, for example, for 5 to 8 hours or so. Freezing the solution allow the solution to be preserved for a longer time.
# [2] = tested on: living microorganisms; assay: Expected sterilization effect of undiluted synthesized peroxynitric acid solution; details: undiluted solution of the fourth embodiment, 420 mM peroxynitric acid
# [3] = tested on: living microorganisms; assay: Sterilization effect of substances fractionated by ion chromatography at different retention times (FIG. 5); details: solution of the fourth embodiment, 0° C., eluant 10 mM HCl pH 2.0
substance,measurement,setting,value
peroxynitric acid,rate of decomposition at 20° C. relative to 0° C.,[1],16 times
same,further lowering of the number of living microorganisms,[2],≥ 3000 orders of magnitude
same,sterilization effect of the fractionated substance (LOG CFU trough),[3],biocidal activity species
